Legend:
[1] = biological target: full-length human LRP1 (purified) (human) (UniProt Q07954); experiment: SPR, LRP1 immobilised, equilibrium fit of Req
[2] = biological target: LRP1 cluster IV (Homo sapiens (Human)) (UniProt Q07954); experiment: SPR, LRP1 cluster IV immobilised, single cycle
[3] = biological target: LRP1 cluster III (Homo sapiens (Human)) (UniProt Q07954); experiment: SPR, LRP1 cluster III immobilised, single cycle
[4] = biological target: LRP1 cluster II (Homo sapiens (Human)) (UniProt Q07954); experiment: SPR, LRP1 cluster II immobilised, single cycle
[5] = biological target: full-length human LRP1 (purified) (human) (UniProt Q07954); experiment: SPR, full-length LRP1 immobilised

Amino acid sequences for entries named in this document (tags omitted). Residues count along the entry.
UniProt Q07954, 20-4544 limits assumed: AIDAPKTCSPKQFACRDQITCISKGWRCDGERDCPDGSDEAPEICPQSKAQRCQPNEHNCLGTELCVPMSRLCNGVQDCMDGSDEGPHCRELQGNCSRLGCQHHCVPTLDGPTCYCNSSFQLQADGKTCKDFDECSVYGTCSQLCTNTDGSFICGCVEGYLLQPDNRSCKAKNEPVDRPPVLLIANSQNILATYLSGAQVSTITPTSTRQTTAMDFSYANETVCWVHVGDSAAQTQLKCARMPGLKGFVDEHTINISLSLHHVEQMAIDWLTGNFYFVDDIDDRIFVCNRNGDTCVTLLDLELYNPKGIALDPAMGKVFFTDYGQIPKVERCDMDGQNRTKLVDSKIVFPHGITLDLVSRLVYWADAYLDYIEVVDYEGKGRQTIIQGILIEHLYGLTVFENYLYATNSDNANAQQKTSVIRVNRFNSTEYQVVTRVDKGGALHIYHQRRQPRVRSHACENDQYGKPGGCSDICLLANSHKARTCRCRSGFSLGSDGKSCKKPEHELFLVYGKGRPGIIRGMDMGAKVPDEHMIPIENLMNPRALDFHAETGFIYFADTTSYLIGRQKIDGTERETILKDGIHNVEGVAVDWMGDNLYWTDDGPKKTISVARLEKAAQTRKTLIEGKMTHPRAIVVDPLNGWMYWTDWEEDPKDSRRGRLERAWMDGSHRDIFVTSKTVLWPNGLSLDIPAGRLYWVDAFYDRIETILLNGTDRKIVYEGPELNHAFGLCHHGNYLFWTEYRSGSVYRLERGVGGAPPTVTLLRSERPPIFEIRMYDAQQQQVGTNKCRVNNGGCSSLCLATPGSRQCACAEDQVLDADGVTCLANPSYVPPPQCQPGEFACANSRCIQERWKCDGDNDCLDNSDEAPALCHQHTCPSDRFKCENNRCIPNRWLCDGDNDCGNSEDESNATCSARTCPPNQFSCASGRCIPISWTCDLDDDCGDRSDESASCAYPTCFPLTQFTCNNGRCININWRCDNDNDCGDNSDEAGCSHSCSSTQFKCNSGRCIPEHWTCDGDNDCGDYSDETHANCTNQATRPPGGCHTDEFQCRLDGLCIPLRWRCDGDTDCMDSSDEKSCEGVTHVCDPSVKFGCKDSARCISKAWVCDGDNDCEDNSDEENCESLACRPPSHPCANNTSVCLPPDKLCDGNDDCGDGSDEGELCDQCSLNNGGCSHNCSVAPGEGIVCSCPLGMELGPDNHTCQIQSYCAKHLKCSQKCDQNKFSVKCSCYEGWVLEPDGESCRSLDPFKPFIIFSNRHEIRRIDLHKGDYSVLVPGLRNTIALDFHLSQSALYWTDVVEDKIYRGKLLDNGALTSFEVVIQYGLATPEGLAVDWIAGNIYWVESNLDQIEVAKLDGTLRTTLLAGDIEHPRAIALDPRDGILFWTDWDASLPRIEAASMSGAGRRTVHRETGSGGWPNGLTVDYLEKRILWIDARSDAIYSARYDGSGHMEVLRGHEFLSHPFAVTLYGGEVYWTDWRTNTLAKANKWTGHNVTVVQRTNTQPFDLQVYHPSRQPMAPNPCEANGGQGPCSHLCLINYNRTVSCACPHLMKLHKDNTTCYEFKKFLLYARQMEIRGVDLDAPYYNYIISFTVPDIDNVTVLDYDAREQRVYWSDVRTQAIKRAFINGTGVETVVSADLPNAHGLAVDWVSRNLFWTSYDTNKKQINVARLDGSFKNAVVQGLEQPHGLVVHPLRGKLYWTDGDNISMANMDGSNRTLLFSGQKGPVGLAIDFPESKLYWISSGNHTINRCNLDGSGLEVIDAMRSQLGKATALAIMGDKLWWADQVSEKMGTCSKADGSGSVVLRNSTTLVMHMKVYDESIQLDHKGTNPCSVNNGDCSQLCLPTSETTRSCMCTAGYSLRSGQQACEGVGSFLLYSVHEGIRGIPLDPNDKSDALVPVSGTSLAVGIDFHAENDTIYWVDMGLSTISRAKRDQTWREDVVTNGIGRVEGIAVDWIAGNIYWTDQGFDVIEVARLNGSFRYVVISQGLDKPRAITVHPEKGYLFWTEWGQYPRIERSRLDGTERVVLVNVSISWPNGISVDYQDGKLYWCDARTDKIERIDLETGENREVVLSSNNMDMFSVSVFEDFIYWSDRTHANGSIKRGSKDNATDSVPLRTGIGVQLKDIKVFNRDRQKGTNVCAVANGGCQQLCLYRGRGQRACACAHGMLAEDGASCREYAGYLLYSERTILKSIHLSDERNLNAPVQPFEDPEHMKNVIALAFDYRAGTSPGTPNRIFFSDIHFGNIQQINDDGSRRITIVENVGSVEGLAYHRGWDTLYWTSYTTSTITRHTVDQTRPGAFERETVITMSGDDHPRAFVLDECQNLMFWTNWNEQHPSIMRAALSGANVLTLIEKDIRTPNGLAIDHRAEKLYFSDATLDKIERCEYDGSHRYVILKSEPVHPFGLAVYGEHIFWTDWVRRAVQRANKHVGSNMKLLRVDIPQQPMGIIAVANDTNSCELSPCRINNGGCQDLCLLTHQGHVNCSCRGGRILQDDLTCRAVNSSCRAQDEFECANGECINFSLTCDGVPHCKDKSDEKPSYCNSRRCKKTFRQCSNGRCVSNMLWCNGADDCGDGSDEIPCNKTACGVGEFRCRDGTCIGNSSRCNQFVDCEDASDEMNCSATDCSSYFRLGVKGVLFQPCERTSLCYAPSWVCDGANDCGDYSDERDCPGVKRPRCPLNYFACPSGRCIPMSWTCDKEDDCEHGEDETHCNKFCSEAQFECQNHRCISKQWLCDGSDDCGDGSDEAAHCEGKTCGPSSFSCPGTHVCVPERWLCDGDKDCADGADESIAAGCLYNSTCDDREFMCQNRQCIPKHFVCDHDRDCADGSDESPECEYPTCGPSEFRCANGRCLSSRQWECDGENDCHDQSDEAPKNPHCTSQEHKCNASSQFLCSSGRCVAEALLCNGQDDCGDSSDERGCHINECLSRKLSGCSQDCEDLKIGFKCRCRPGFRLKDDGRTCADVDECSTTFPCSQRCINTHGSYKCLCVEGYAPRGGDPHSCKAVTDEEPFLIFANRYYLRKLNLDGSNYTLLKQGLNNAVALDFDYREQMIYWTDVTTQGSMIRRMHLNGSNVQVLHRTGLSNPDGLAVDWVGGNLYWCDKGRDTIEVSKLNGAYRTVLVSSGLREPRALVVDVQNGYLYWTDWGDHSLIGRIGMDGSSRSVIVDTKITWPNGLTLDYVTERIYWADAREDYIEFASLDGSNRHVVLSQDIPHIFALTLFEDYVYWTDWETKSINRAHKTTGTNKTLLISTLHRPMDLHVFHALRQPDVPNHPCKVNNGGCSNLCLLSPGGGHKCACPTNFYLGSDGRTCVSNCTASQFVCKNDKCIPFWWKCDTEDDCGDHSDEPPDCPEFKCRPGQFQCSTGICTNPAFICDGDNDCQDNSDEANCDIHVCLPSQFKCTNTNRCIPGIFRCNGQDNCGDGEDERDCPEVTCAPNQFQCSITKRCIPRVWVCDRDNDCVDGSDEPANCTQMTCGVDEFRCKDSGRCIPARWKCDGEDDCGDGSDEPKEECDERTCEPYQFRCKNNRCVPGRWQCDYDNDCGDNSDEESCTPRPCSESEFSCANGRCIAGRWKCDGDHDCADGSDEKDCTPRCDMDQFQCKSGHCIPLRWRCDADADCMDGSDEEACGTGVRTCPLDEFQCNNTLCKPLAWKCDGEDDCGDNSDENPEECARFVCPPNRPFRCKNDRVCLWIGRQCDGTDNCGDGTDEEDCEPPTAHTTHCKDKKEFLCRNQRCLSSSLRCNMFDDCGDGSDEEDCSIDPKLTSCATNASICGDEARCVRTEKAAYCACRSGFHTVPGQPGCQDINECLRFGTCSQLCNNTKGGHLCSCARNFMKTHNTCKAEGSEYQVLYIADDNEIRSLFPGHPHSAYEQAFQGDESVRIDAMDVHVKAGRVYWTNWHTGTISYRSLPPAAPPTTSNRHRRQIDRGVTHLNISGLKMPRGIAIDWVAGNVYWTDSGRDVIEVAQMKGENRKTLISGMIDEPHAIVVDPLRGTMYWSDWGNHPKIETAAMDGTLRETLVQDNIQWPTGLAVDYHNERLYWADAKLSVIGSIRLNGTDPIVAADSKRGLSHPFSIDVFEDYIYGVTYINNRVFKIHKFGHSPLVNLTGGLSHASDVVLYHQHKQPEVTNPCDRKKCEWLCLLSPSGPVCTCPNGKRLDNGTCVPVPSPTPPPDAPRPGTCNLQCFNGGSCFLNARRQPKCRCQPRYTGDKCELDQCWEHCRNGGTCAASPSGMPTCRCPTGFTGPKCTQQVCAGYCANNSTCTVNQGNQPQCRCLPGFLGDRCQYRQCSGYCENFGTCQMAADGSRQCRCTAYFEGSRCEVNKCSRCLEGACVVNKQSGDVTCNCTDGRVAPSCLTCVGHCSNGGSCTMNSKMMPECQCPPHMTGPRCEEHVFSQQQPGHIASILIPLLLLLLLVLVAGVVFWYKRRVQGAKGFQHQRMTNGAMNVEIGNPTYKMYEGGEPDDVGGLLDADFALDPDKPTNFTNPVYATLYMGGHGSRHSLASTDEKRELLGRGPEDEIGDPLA
UniProt Q07954, 3293-3783 limits assumed: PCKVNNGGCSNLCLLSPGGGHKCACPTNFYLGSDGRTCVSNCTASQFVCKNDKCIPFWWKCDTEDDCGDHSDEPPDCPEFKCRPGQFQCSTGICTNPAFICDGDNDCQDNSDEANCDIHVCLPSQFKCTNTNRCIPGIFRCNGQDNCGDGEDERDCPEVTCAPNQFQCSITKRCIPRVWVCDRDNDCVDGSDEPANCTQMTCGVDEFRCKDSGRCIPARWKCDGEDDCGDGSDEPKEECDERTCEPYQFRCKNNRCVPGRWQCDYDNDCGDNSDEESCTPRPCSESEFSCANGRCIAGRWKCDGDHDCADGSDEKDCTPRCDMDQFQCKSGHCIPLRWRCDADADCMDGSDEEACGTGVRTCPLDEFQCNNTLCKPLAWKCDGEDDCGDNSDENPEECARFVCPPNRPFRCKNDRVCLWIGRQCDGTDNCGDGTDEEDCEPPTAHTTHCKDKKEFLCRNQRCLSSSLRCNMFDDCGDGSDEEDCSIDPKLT
UniProt Q07954, 2481-2942 limits assumed: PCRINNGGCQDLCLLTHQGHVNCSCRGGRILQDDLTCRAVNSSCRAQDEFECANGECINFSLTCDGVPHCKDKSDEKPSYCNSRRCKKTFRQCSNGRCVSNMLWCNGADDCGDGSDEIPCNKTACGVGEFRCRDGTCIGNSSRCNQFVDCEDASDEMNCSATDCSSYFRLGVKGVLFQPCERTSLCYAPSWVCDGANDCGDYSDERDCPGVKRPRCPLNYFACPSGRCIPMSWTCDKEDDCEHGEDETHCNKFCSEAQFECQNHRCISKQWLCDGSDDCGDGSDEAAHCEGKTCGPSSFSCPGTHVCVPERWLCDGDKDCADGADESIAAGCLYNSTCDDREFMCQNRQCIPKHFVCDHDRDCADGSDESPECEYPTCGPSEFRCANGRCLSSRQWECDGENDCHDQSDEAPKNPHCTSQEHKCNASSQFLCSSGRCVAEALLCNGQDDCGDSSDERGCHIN
UniProt Q07954, 805-1184 limits assumed: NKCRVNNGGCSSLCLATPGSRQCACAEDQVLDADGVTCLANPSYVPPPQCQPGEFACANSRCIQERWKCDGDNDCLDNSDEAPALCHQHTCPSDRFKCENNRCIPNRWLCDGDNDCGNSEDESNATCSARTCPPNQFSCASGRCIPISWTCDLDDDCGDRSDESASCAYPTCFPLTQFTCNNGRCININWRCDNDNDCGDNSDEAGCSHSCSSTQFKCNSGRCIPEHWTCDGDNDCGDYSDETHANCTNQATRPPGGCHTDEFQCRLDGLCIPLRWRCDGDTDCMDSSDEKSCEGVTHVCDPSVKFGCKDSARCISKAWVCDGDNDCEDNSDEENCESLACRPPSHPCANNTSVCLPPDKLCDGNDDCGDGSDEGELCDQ

Substance | Kd [1] | Kd [2] | Kd [3] | Kd [4] | Kd [5]
human recombinant tau (2N4R) (from UniProt P10636 1-441) (ligand) | 60 nM | 81 nM | 52 nM | 69 nM | 
hyperphosphorylated 2N4R tau produced by Sf9 cells (from UniProt P10636 1-441) (ligand; hyperphosphorylated (produced in Sf9 insect cells, intermediate phosphorylation state); sites not stated) |  |  |  |  | 243 nM

— patent publication US20220332813A1
